From article PMC8166343 (Biochemical Journal, 2021)

Sequences of proteins named here, by UniProt entry; tags and fusion partners are left off. Residues count along the entry.
UniProt O75151, 1-451 limits assumed: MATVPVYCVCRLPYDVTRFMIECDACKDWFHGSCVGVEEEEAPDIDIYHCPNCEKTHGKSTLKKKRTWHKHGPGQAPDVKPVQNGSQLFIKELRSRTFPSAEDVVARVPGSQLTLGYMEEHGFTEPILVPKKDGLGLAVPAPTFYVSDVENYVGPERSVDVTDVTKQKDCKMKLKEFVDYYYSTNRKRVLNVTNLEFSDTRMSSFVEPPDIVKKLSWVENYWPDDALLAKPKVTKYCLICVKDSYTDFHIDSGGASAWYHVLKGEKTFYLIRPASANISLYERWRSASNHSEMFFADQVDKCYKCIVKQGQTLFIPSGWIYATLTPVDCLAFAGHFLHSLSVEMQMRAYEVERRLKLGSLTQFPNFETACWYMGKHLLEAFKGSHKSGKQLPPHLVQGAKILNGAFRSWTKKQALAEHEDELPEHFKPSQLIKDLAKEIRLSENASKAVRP

Columns and labels:
SPIN1 TUDOR = assay type: binding; settings: 1 h, 4°C; pH 7.5
PHF2 PHD = assay type: binding; settings: 1 h, 4°C; pH 7.5
PHF2 (residues 1–451) = PHF2 (residues 1–451) (Homo sapiens, UniProt O75151); settings: read-out: binding affinity (KD); PHF2 fragment (residues 1–451) containing PHD domain and Jumonji domain; H3K4me3 peptide; ref [36]; cited from earlier work
ING2 PHD = assay type: binding; settings: 1 h, 4°C; pH 7.5
ING3 PHD = assay type: binding; settings: 1 h, 4°C; pH 7.5

## ARTK(me3)QTARKSTGGKAPRK-biotin [H3 K4me3, reference compound]
SPIN1 TUDOR
  pull-down of GST-SPIN1 TUDOR: interacted
PHF2 PHD
  pull-down of GST-PHF2 PHD: strongly interacted
PHF2 (residues 1–451)
  Kd: 230 nM
ING2 PHD
  pull-down of GST-ING2 PHD: recognized
ING3 PHD
  pull-down of GST-ING3 PHD: methylation-dependent interactions
